Assay results published in PubChem BioAssay AID2528 (National Center for Advancing Translational Sciences (NCATS), 2010).
The entries are a selection whose mix differs from that of the whole data set. Calls of active or inactive are those of the source. Calls come from the whole dose curve; as a rule, active = well fitted inhibition curve with a large enough effect; inconclusive = small, poorly fitted or top-dose-only effect; inactive = flat fitted curve, though single readings scatter.
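Note: plate controls were vehicle for no effect and no enzyme for full effect; nearly all actives have a fitted effect of over 35% in size.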

Amino acid sequences for entries named in this document (tags omitted).
UniProt P54132, whole entry: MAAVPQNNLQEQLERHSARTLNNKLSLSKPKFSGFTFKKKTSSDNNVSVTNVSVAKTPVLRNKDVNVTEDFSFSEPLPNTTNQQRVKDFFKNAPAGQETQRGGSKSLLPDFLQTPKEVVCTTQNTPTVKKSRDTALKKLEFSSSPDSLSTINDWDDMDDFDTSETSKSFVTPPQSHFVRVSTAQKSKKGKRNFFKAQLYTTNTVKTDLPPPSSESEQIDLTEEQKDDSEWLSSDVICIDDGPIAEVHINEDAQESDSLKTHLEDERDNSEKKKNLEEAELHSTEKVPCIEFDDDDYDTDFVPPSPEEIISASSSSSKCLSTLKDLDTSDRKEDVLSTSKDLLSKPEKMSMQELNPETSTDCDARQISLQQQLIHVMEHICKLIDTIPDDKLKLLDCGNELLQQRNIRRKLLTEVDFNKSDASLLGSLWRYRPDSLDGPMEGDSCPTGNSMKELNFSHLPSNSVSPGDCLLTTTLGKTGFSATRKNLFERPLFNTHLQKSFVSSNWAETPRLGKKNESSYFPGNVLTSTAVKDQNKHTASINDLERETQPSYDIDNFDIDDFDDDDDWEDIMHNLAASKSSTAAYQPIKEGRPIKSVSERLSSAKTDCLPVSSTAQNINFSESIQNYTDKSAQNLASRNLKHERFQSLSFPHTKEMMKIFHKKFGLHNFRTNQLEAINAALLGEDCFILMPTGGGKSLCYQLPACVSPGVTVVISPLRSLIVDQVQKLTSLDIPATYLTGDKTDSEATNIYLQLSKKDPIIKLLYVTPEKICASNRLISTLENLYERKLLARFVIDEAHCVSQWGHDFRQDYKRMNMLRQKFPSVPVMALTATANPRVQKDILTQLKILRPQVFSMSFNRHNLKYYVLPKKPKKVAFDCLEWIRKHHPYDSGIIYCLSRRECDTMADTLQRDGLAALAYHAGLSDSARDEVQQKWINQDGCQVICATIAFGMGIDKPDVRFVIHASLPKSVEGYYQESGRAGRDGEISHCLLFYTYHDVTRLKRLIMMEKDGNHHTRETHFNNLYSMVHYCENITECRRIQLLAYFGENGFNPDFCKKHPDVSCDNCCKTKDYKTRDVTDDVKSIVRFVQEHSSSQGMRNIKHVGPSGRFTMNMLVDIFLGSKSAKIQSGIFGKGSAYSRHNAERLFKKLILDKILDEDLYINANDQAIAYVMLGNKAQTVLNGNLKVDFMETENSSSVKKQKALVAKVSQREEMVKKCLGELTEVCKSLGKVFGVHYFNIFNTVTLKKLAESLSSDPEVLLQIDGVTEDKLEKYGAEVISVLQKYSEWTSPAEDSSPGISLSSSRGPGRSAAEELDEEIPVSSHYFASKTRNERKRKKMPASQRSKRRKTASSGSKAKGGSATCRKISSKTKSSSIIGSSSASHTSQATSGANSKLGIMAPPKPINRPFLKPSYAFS

Each compound was assayed against RecQ-like DNA helicase BLM (Homo sapiens) (UniProt P54132) (assay: qHTS Assay for Inhibitors of Bloom's syndrome helicase (BLM)). Conditions: recombinant BLM DNA unwinding, fluorescence dequenching; at 56.1 µM (top of the series) unless noted.
For `CC(C)OP(=O)(F)OC(C)C`, the activity change, negative = inhibition was inactive: 0.856%. With `C/C1=C2N=C(/C=C3N=C(/C(C)=C4\[N-][C@@](C)([C@H]5N=C1[C@@](C)(CCC(=O)NC[C@H](C)OP(=O)([O-])O[C@@H]1[C@H](O)[C@H](n6cnc7cc(C)c(C)cc76)O[C@@H]1CO)[C@@H]5CC(N)=O)[C@](C)(CC(N)=O)[C@H]4CCC(N)=O)[C@@](C)(CC(N)=O)[C@@H]\3CCC(N)=O)C(C)(C)[C@@H]/2CCC(N)=O.[C-]#N.[Co+3]` the activity change, negative = inhibition was inactive: -7.6% [at 21.4 µM]. In the case of `CCOC(=O)c1ccc(NP(C)(=O)Oc2ccc(Cl)cc2)cc1` (stereo not given), the activity change, negative = inhibition is reported as inactive: -3.31%. `CP(=O)(OC12CC3CC(CC(C3)C1)C2)OC12CC3CC(CC(C3)C1)C2` was tested, and the activity change, negative = inhibition was inactive: -1.76%. For `CC(C)(C)c1ccc(OP(C)(=O)O)cc1`, the activity change, negative = inhibition was inactive: -1.55%. `COc1ccccc1OP(C)(=O)Nc1ccccc1Br` (stereo not given) was tested, and the activity change, negative = inhibition was inactive: -2.44%. In the case of `CP(=O)(Nc1ccc(Cl)cc1)Oc1ccc(F)cc1` (stereo not given), the activity change, negative = inhibition is reported as inactive: -2.46%. In the case of `CN(C)C(=O)c1c([N+](=O)[O-])cc([N+](=O)[O-])cc1[N+](=O)[O-]`, the activity change, negative = inhibition is reported as inactive: -4.98%. For `COc1ccc(OP(C)(=O)Nc2ccc(Br)cc2)cc1` (stereo not given), the activity change, negative = inhibition was inactive: -1.72%. With `CCN(CC)CC(O)COC(=O)C(O)(c1ccccc1)C1CCCCC1` (stereo not given) the activity change, negative = inhibition was inactive: 2.84%. In the case of `OCCSCCO`, the activity change, negative = inhibition is reported as inactive: -7.32%. In the case of `O=C(OCCCN1CCCC1)C(O)(c1ccccc1)C1CCCCC1` (stereo not given), the activity change, negative = inhibition is reported as inactive: 2.45%. In the case of `COc1ccccc1OP(C)(=O)Nc1c(C)n(C)n(-c2ccccc2)c1=O` (stereo not given), the activity change, negative = inhibition is reported as inactive: -1.23%. With `CCc1ccc(OP(C)(=O)Nc2cccnc2)cc1` (stereo not given) the activity change, negative = inhibition was inactive: 1.27%. With `CP(=O)(Oc1ccccc1)N1CCOC1=O` (stereo not given) the activity change, negative = inhibition was inactive: -0.242%. In the case of `O=[N+]([O-])c1cc([N+](=O)[O-])c(Nc2ccccn2)c([N+](=O)[O-])c1`, the activity change, negative = inhibition is reported as inactive: 4.08%. For `Cc1c(NP(C)(=O)Oc2ccc(C(C)C)cc2)c(=O)n(-c2ccccc2)n1C` (stereo not given), the activity change, negative = inhibition was inactive: -1.26%. `COc1ccccc1OP(C)(=O)Nc1ccc(C)cc1C` (stereo not given) was tested, and the activity change, negative = inhibition was inactive: 0.557%. In the case of `CP(=O)(Nc1ccccn1)Oc1ccccc1` (stereo not given), the activity change, negative = inhibition is reported as inactive: 1.03%. `CCc1ccc(OP(C)(=O)O)cc1` was tested, and the activity change, negative = inhibition was inactive: -0.0184%. With `COc1ccccc1OP(C)(=O)Nc1ccc(Br)cc1` (stereo not given) the activity change, negative = inhibition was inactive: -2.98%. For `COc1ccc(OP(C)(=O)Nc2ccccn2)cc1` (stereo not given), the activity change, negative = inhibition was inactive: -3.92%. In the case of `CN(C)CCOC(=O)C(O)(c1ccccc1)C1CCCC1` (stereo not given), the activity change, negative = inhibition is reported as inactive: 1.86%. For `Cc1nc2ccc3ccccc3c2o1.O=[N+]([O-])c1cc([N+](=O)[O-])c(O)c([N+](=O)[O-])c1`, the activity change, negative = inhibition was inactive: -24.1%. With `CP(=O)(OCCOc1ccccc1)OCCOc1ccccc1` the activity change, negative = inhibition was inactive: -5.48%. With `CP(=O)(Nc1ccc(Cl)cc1Cl)Oc1ccccc1` (stereo not given) the activity change, negative = inhibition was inactive: -1.9%. In the case of `Cc1cc(C)cc(OP(C)(=O)Nc2cccc(C(F)(F)F)c2)c1` (stereo not given), the activity change, negative = inhibition is reported as inactive: -12.5%. `COc1ccccc1OP(C)(=O)Nc1ccc(C)c(C)c1` (stereo not given) was tested, and the activity change, negative = inhibition was inactive: -4.75%. `COc1ccc(OP(C)(=O)Nc2ccccc2Br)cc1` (stereo not given) was tested, and the activity change, negative = inhibition was inactive: -1.85%. In the case of `CCN(CC)CCCOC(=O)C(O)(c1ccccc1)C1CCCCC1` (stereo not given), the activity change, negative = inhibition is reported as inactive: 1.53%. For `CP(=O)(Nc1ccccc1)Oc1ccc(F)cc1` (stereo not given), the activity change, negative = inhibition was inactive: -0.764%. With `CCCCCOc1ccc(NP(C)(=O)Oc2ccc(Cl)cc2Cl)cc1` (stereo not given) the activity change, negative = inhibition was inactive: -15.4%. In the case of `CCOC(=O)c1ccc(NP(C)(=O)Oc2ccc(F)cc2)cc1` (stereo not given), the activity change, negative = inhibition is reported as inactive: 2.15%. In the case of `COc1ccc(OP(C)(=O)Nc2ccc(SC(F)(F)F)cc2)cc1` (stereo not given), the activity change, negative = inhibition is reported as inactive: -7.65%. With `O=C(OCCN1CCN(CCOCc2ccccc2)CC1)C(O)(c1ccccc1)c1ccccc1` the activity change, negative = inhibition was inactive: -1.53%. For `CP(=O)(Nc1ccccc1F)Oc1ccccc1` (stereo not given), the activity change, negative = inhibition was inactive: -11.8%. With `CC(C)c1ccc(OP(C)(=O)Nc2ccc(SC(F)(F)F)cc2)cc1` (stereo not given) the activity change, negative = inhibition was inactive: -17.8%. With `CP(=O)(Nc1ccc2c(c1)OCCO2)Oc1ccccc1` (stereo not given) the activity change, negative = inhibition was inactive: -0.504%. With `CCN(CCCl)Cc1ccccc1C` the activity change, negative = inhibition was inactive: 5.31%. With `Cc1ccccc1NP(C)(=O)Nc1ccccc1C` the activity change, negative = inhibition was inactive: -0.939%. In the case of `CP(=O)(Nc1ccc(SC(F)(F)F)cc1)Oc1ccc(F)cc1` (stereo not given), the activity change, negative = inhibition is reported as inactive: -3.68%. In the case of `CCOP(C)(=S)SCC(=O)NC(C)(CC)C(=O)O` (stereo not given), the activity change, negative = inhibition is reported as inactive: 4.32%. With `O=[N+]([O-])c1ccc(OP2(=O)COCCO2)cc1` (stereo not given) the activity change, negative = inhibition was inactive: 1.42%. For `Cc1cc(-c2cccc3ccccc23)c(C)cn1.O=[N+]([O-])c1cc([N+](=O)[O-])c(O)c([N+](=O)[O-])c1`, the activity change, negative = inhibition was inactive: -4.81%. In the case of `COc1ccc(OP(C)(=O)Nc2cccc(Br)c2)cc1` (stereo not given), the activity change, negative = inhibition is reported as inactive: -0.829%. For `CN(C)CCOC(=O)C(O)(c1ccccc1)C1CCCCC1` (stereo not given), the activity change, negative = inhibition was inactive: 3.9%. `COc1ccc(NP(C)(=O)Oc2ccccc2OC)cc1` (stereo not given) was tested, and the activity change, negative = inhibition was inactive: -1%. For `COc1ccccc1OP(C)(=O)Nc1c(C)cccc1C` (stereo not given), the activity change, negative = inhibition was inactive: -1.44%. With `CN1CCCCC1COC(=O)C1(O)c2ccccc2CCc2ccccc21` (stereo not given) the activity change, negative = inhibition was inactive: -10.6%. For `CP(=O)(Nc1ccc(SC(F)(F)F)cc1)Oc1ccccc1` (stereo not given), the activity change, negative = inhibition was inactive: -4.23%. For `CCCOc1ccc(NP(C)(=O)Oc2ccc(Cl)cc2)cc1` (stereo not given), the activity change, negative = inhibition was inactive: -3.17%. For `O=[N+]([O-])c1cc([N+](=O)[O-])c(Nc2nnnn2CCO)c([N+](=O)[O-])c1`, the activity change, negative = inhibition was inactive: -3.76%. In the case of `Cc1nc2ccc3ccccc3c2s1.O=[N+]([O-])c1cc([N+](=O)[O-])c(O)c([N+](=O)[O-])c1`, the activity change, negative = inhibition is reported as inactive: 1.6%. In the case of `O=[N+]([O-])c1cc([N+](=O)[O-])c(-n2nnc3ccccc32)c([N+](=O)[O-])c1`, the activity change, negative = inhibition is reported as inactive: -1.05%. For `CC(C)N(CCCl)C(C)C`, the activity change, negative = inhibition was inactive: 1.44%. With `Cc1ccc(C)c(NP(C)(=O)Oc2ccccc2)c1` (stereo not given) the activity change, negative = inhibition was inactive: 1.27%. For `CP(=O)(Nc1cccc(Br)c1)Oc1ccccc1` (stereo not given), the activity change, negative = inhibition was inactive: -0.148%. In the case of `Cc1cc(C)cc(OP(C)(=O)Nc2ccccn2)c1` (stereo not given), the activity change, negative = inhibition is reported as inactive: -1.47%. `COc1ccccc1OP(C)(=O)Nc1cccc(Br)c1` (stereo not given) was tested, and the activity change, negative = inhibition was inactive: -1.47%. With `CCOC(=O)c1ccc(NP(C)(=O)Oc2cc(C)cc(C)c2)cc1` (stereo not given) the activity change, negative = inhibition was inactive: -5.44%. In the case of `Cc1cc(C)cc(OP(C)(=O)Nc2ccc(C)cc2C)c1` (stereo not given), the activity change, negative = inhibition is reported as inactive: -0.756%. In the case of `CC1=NCCc2c1[nH]c1ccccc21.O=[N+]([O-])c1cc([N+](=O)[O-])c(O)c([N+](=O)[O-])c1`, the activity change, negative = inhibition is reported as inactive: 4.08%. `O=[N+]([O-])OCC(CO[N+](=O)[O-])(CO[N+](=O)[O-])CO[N+](=O)[O-]` was tested, and the activity change, negative = inhibition was inactive: 7.52%. With `O=[N+]([O-])c1cccc([N+](=O)[O-])c1` the activity change, negative = inhibition was inactive: 2.12%. `Cc1ccc(NP(C)(=O)Oc2ccccc2)c(C)c1` (stereo not given) was tested, and the activity change, negative = inhibition was inactive: 2.13%. With `COc1ccccc1OP(C)(=O)Nc1ccc(C)cc1` (stereo not given) the activity change, negative = inhibition was inactive: -0.744%. With `CCOC(=O)c1ccc(NP(C)(=O)Oc2ccccc2)cc1` (stereo not given) the activity change, negative = inhibition was inactive: 4.11%. In the case of `Cc1cc(C)cc(OP(C)(N)=O)c1` (stereo not given), the activity change, negative = inhibition is reported as inactive: -5.62%. In the case of `COc1ccc(OP(C)(=O)Nc2cccc(F)c2)cc1` (stereo not given), the activity change, negative = inhibition is reported as inactive: -1.86%. In the case of `COc1ccccc1OP(C)(=O)Nc1cc(Cl)ccc1C` (stereo not given), the activity change, negative = inhibition is reported as inactive: -3.78%. With `O=C(O)C1(O)c2ccccc2-c2ccccc21` the activity change, negative = inhibition was inactive: -12.2%. For `O=[N+]([O-])c1ccc2c(c1)C=Nc1ccccc1O2`, the activity change, negative = inhibition was inactive: -5.35%. For `O=C(O)C(O)(c1ccccc1)c1ccccc1`, the activity change, negative = inhibition was inactive: 5.7%. `Cc1cccc(C)c1OP(C)(N)=O` (stereo not given) was tested, and the activity change, negative = inhibition was inactive: -4.29%. For `CC(C)(C)c1ccc(OP(C)(=O)Nc2ccc(SC(F)(F)F)cc2)cc1` (stereo not given), the activity change, negative = inhibition was inactive: -13.1%. With `O=[N+]([O-])[O-].[NH4+]` the activity change, negative = inhibition was inactive: -5.2%. For `CCN(CC)CCCOC(=O)C(O)(c1ccccc1)c1ccccc1`, the activity change, negative = inhibition was inactive: 0.0177%. With `CN(C)CCS` the activity change, negative = inhibition was inactive: 2.56%. With `CCOC(=O)c1ccc(NP(C)(=O)Oc2ccc(OC)cc2)cc1` (stereo not given) the activity change, negative = inhibition was inactive: 1.66%. `CCOP(C)(=S)SCC(=O)NC(C)C(=O)O` (stereo not given) was tested, and the activity change, negative = inhibition was inactive: 0.0093%. With `CP(=O)(Nc1ccccn1)Oc1ccc(Cl)cc1` (stereo not given) the activity change, negative = inhibition was inactive: 0.544%. With `CP(=O)(Oc1ccccc1)OC(c1ccccc1)C(F)(F)F` (stereo not given) the activity change, negative = inhibition was inactive: -2.3%. With `Cc1cccc(C)c1OP(C)(=O)Nc1ccc(SC(F)(F)F)cc1` (stereo not given) the activity change, negative = inhibition was inactive: -5.48%. `CP(=O)(Nc1ccc(SC(F)(F)F)cc1)Oc1ccc(Cl)cc1` (stereo not given) was tested, and the activity change, negative = inhibition was inactive: -10.2%. With `Cc1cc(C)cc(OP(C)(=O)Nc2ccc(SC(F)(F)F)cc2)c1` (stereo not given) the activity change, negative = inhibition was inactive: -13.4%. In the case of `CCc1ccc(OP(C)(=O)N2CCN(c3ccc([N+](=O)[O-])cc3)CC2)cc1` (stereo not given), the activity change, negative = inhibition is reported as inactive: -5.19%. With `CP(=O)(NC(=O)Nc1ccccc1)Oc1ccccc1` (stereo not given) the activity change, negative = inhibition was inactive: -2.17%. In the case of `CP(=S)(Nn1cnnc1)Oc1ccccc1` (stereo not given), the activity change, negative = inhibition is reported as inactive: -1.99%. For `CP(=O)(Nc1ccccc1Br)Oc1ccccc1` (stereo not given), the activity change, negative = inhibition was inactive: 1.9%. With `COc1ccccc1OP(C)(=O)Nc1ccccc1` (stereo not given) the activity change, negative = inhibition was inactive: -0.947%.
